# Results reported in ChEMBL document CHEMBL3612054 (Bioorg Med Chem, 2015).
# What was measured:
# [1] = Solubility of the compound in 10 mM phosphate buffer at pH 7.4 after 90 mins by LC/MS analysis; type: physicochemical
# [2] = Solubility of the compound in 10 mM phosphate buffer at pH 3 after 90 mins by LC/MS analysis; type: physicochemical
SMILES,"solubility at […] ([1]; phosphate buffer, pH 7.4) [µM]",solubility [2] [µM],"solubility ([1]; buffer, pH 7.4, […]) [µM]"
CC(C)[C@@H](CN1CC[C@@](C)(c2cccc(F)c2)[C@@H](C)C1)NC(=O)[C@H]1Cc2ccc(O)cc2CN1,10,47,
CC(C)[C@@H](CN1CCC(C)(c2cccc(O)c2)CC1)NC(=O)[C@H]1Cc2ccc(O)cc2CN1,,101,44
